Consider 62 molecules from patent publication US20250144067A1, “PERSONALIZED STARVATION THERAPY FOR CANCER” (Faeth Therapeutics, Inc., priority 2021, published 2025).

Where a name gives a salt, the structure may show the parent alone. Read-outs that look alike come from different tables or passages of the source.

The test system of assay [1] is NCI-H292 lung cancer cells. Description: FDA drug screening, complete media vs cholesterol-free media with simvastatin (TABLE 2). The conditions noted are these: for Cholesterol-free media + simvastatin (0.04 μM): cholesterol-free media with simvastatin 0.04 μM.
Assay [2] concerns NCI-H292 lung cancer cells. Description: FDA drug screening, complete media vs cholesterol-free media without statin (TABLE 1). The conditions noted are these: for Cholesterol-free: cholesterol-free media without statin.
The mark [3] stands for this setting: NCI-H292 cells, complete media, cell growth value in FDA drug screen.
[4] abbreviates: NCI-H292 cells, FDA drug library screen, complete media.
Where [5] appears, read: NCI-H292 cells, drug in complete media.
[6] abbreviates: NCI-H292 cells, complete media, FDA drug library screen (TABLE 2).
Where [7] appears, read: NCI-H292 cells, complete media, FDA drug library screen.
Where [8] appears, read: NCI-H292 cells, FDA library drug in complete media.
[9] abbreviates: NCI-H292 cells, FDA drug library screen.

Turning to `CCCCC1C(=O)N(c2ccccc2)N(c2ccccc2)C1=O` [Phenylbutazone], the “Complete Media” value in assay [1] (setting [3]) amounted to 1.149.

For `CC(=O)[C@@]1(O)CC[C@H]2[C@@H]3C[C@H](C)C4=CC(=O)C=C[C@]4(C)[C@@]3(F)[C@@H](O)C[C@@]21C` [Fluorometholone], the Complete in assay [2] (setting [4]) turned out to be 1.165.

In the case of `CCn1cc(C(=O)O)c(=O)c2cc(F)c(N3CCNC(C)C3)c(F)c21` (centres unmarked) [Lomefloxacin (hydrochloride)], in assay [2] (NCI-H292 cells, complete media), the Complete was 1.165.

Take `CCCN1CCCC[C@H]1C(=O)Nc1c(C)cccc1C.CS(=O)(=O)O` [Ropivacaine (mesylate)]: in assay [1] (setting [4]), the “Complete Media” value is given as 1.151.

Regarding `CC(C)(O/N=C(\C(=O)N[C@@H]1C(=O)N2C(C(=O)[O-])=C(C[n+]3ccccc3)CS[C@H]12)c1csc(N)n1)C(=O)O` [Ceftazidime], in assay [1] (setting [5]), the “Complete Media” value is given as 1.153.

In turn, `CCOc1ccc(Cc2cc([C@@H]3O[C@H](CO)[C@@H](O)[C@H](O)[C@H]3O)ccc2Cl)cc1` had a Cholesterol-free in assay [2] (NCI-H292 cells) of 0.9446.

On to `CC(C)NCC(O)c1ccc(O)c(O)c1` (centres unmarked) [Isoprenaline (hydrochloride)], for which the Complete in assay [2] (NCI-H292 cells in complete media) was 1.173.

For `Cn1c(=O)c2c(ncn2CC(=O)O)n(C)c1=O` [Acefylline], in assay [2] (NCI-H292 cells, complete media), the Complete amounted to 1.149.

Take `CC(C)C[C@H](NC(=O)[C@@H](O)[C@H](N)Cc1ccccc1)C(=O)O` [Bestatin (hydrochloride)]: the “Complete Media” value in assay [1] (setting [4]) came out at 1.151.

As to `C[C@H]1O[C@H](OC2[C@@H](O)[C@@H](O)C(O)[C@H](O)[C@H]2O)[C@@H](N)C[C@@H]1N=C(N)C(=O)O.Cl.O` (some centres unmarked) [Kasugamycin (hydrochloride hydrate)], in assay [1] (setting [4]), the “Complete Media” value was 1.153.

Consider `C[C@]12C=CC(=O)C=C1CC[C@H]1[C@@H]3C[C@@H](O)[C@](O)(C(=O)CO)[C@@]3(C)C[C@H](O)[C@@]12F` [Triamcinolone], for which, in assay [1] (setting [6]), the “Complete Media” value was determined as 1.165.

`N[C@@H]1CONC1=O` [D-Cycloserine]: in assay [2] (NCI-H292 cells, complete media), the Complete stood at 1.146.

`CS(=O)(=O)c1ccc(C(=O)Nc2ccc(Cl)c(-c3ccccn3)c2)c(Cl)c1` [Vismodegib] gave a Complete in assay [2] (setting [7]) of 1.174.

With `N[C@H]1C(O)O[C@H](CO)[C@@H](O)[C@@H]1O` (some centres unmarked) [Glucosamine], in assay [1] (setting [8]), the “Complete Media” value was 1.146.

Regarding `COc1ccc(-c2cc(=O)c3c(O)cc(O[C@@H]4O[C@H](CO[C@@H]5O[C@@H](C)[C@H](O)[C@@H](O)[C@H]5O)[C@@H](O)[C@H](O)[C@H]4O)cc3o2)cc1O` [Diosmin], in assay [1] (setting [4]), the “Complete Media” value is reported as 1.15.

In the case of `COc1ccc2[n-]c([S+]([O-])Cc3ncc(C)c(OC)c3C)nc2c1.COc1ccc2[n-]c([S+]([O-])Cc3ncc(C)c(OC)c3C)nc2c1.[Mg+2]` (centres unmarked) [Esomeprazole magnesium], the Complete in assay [2] (setting [7]) was found to be 1.175.

As to `C=CCc1ccccc1OCC(O)CNC(C)C` (centres unmarked) [Alprenolol (hydrochloride)], in assay [1] (setting [4]), the “Complete Media” value is 1.153.

In assay [2] (setting [9]), `CCCCCCCCCCCCN1CCCCCC1=O` [Laurocapram] showed a Cholesterol-free of 0.9447.

For the molecule `Cc1ncc(COP(=O)(O)O)c(C)c1O` [4-Deoxypyridoxine 5′-phosphate], the Complete in assay [2] (setting [7]) was determined as 1.15.

Turning to `NCCCC(O)(P(=O)(O)O)P(=O)(O)O` [Alendronate (sodium hydrate)], the “Complete Media” value in assay [1] (setting [4]) turned out to be 1.169.

Regarding `CC(S)C(=O)NCC(=O)O` (centres unmarked) [Tiopronin], in assay [1] (setting [3]), the “Complete Media” value was found to be 1.151.

For `Oc1c(I)cc(Cl)c2cccnc12` [Clioquinol], the Complete in assay [2] (setting [7]) is 1.175.

Turning to `CC(C)[N+]1(C)[C@@H]2CC[C@H]1CC(OC(=O)C(CO)c1ccccc1)C2.[Br-]` (some centres unmarked) [Ipratropium (bromide)], the “Complete Media” value in assay [1] (setting [8]) was 1.146.

As to `COC(=O)c1cc(OC)c2c(c1-c1c(C(=O)OC)cc(OC)c3c1OCO3)OCO2` [Bifendate], in assay [1] (setting [4]), the “Complete Media” value amounted to 1.169.

With `CCN1CCN(C(=O)N[C@@H](C(=O)N[C@@H]2C(=O)N3[C@@H]2SC(C)(C)[C@@H]3C(=O)[O-])c2ccccc2)C(=O)C1=O.[Na+]` [Piperacillin (sodium)], in assay [1] (NCI-H292 cells, FDA drug library screen, complete media, quantity measured not stated in table head), the “Complete Media” value is given as 1.171.

With `O=C(O)c1cc(/N=N/c2ccc(O)c(C(=O)O)c2)ccc1O` [Olsalazine (Disodium)], in assay [1] (setting [6]), the “Complete Media” value amounted to 1.149.

Regarding `CC(=O)OCC(=O)[C@@]1(OC(C)=O)[C@@H](C)C[C@H]2[C@@H]3C[C@H](F)C4=CC(=O)C=C[C@]4(C)[C@@]3(F)[C@@H](O)C[C@@]21C` [Diflorasone], the “Complete Media” value in assay [1] (setting [4]) came out at 1.174.

As to `Nc1cc(N2CCCCC2)nc(N)[n+]1[O-]` [Minoxidil], in assay [1] (setting [8]), the “Complete Media” value was found to be 1.166.

Molecule `CNCCCC1c2ccccc2C=Cc2ccccc21` [Protriptyline (hydrochloride)] displayed a Complete in assay [2] (NCI-H292 cells, complete media) of 1.153.

In the case of `O=C(O)Cc1ccccc1Nc1c(Cl)cccc1Cl` [Diclofenac (diethylamine)], in assay [2] (setting [7]), the Complete is 1.145.

For `COc1cc2c(cc1OC)CC(=O)N(CCCN(C)C[C@H]1Cc3cc(OC)c(OC)cc31)CC2` [Ivabradine (hydrochloride)], the Complete in assay [2] (NCI-H292 cells, complete media) is reported as 1.149.

Regarding `CC(=O)Oc1ccccc1C(=O)Nc1ncc([N+](=O)[O-])s1` [Nitazoxanide], the Complete in assay [2] (setting [7]) is given as 1.149.

`CC1=NN(c2ccc(C)c(C)c2)C(=O)/C1=N\Nc1cccc(-c2cccc(C(=O)O)c2)c1O` [Eltrombopag]: the Complete in assay [2] (NCI-H292 cells, complete media) came to 1.17.

Molecule `CCCCC1C(=O)N(c2ccccc2)N(c2ccc(O)cc2)C1=O` (centres unmarked) [Oxyphenbutazone] showed a Complete in assay [2] (setting [4]) of 1.171.

In turn, `CCCCN(CCCC)CC(O)c1cc(Cl)cc2c1-c1ccc(Cl)cc1/C2=C/c1ccc(Cl)cc1` (centres unmarked) [Lumefantrine] showed a Complete in assay [2] (setting [7]) of 1.173.

With `Cc1nc2n(c(=O)c1CCN1CCC(c3noc4cc(F)ccc34)CC1)CCCC2` [Risperidone], the “Complete Media” value in assay [1] amounted to 1.151.

`CS(=O)(=O)Nc1ccc([N+](=O)[O-])cc1Oc1ccccc1` [Nimesulide]: the “Complete Media” value in assay [1] (setting [4]) turned out to be 1.153.

With `O=C(O)c1ccccc1` [Benzoic acid], the “Complete Media” value in assay [1] is on record as 1.168.

Consider `C(=C\c1ccccc1)/CN1CCN(C(c2ccccc2)c2ccccc2)CC1` [Cinnarizine], for which the “Complete Media” value in assay [1] (setting [3]) was 1.168.

For `C[C@H]1Oc2cc(cnc2N)-c2c(nn(C)c2C#N)CN(C)C(=O)c2ccc(F)cc21` [Lorlatinib], the “Complete Media” value in assay [1] (setting [4]) was 1.15.

Take `O=C(O)Cc1cc(I)c(Oc2ccc(O)c(I)c2)c(I)c1` [Tiratricol]: in assay [1] (setting [4]), the “Complete Media” value is listed as 1.145.

With `CC1=C(CC(=O)O)c2cc(F)ccc2/C1=C\c1ccc([S+](C)[O-])cc1` (centres unmarked) [Sulindac], in assay [1] (setting [6]), the “Complete Media” value stood at 1.173.

Consider `CCOc1ccc2ccccc2c1C(=O)N[C@@H]1C(=O)N2[C@@H]1SC(C)(C)[C@@H]2C(=O)O` [Nafcillin (sodium monohydrate)], for which the “Complete Media” value in assay [1] (setting [4]) turned out to be 1.174.

As for `N#Cc1ccc([C@H]2CCc3cncn32)c(F)c1` [Osilodrostat], in assay [1] (setting [4]), the “Complete Media” value stood at 1.152.

For `CN1C(=O)C[C@@H](C(=O)N[C@@H](Cc2c[nH]cn2)C(=O)N2CCC[C@H]2C(N)=O)NC1=O` [Taltirelin], the “Complete Media” value in assay [1] (setting [5]) came out at 1.148.

For the molecule `Cn1c(=O)c2[nH]cnc2n(C)c1=O` [Choline theophyllinate], in assay [1] (setting [4]), the “Complete Media” value came out at 1.171.

With `C[C@H](CCC(=O)NCCS(=O)(=O)O)[C@H]1CC[C@H]2[C@@H]3CC[C@@H]4C[C@H](O)CC[C@]4(C)[C@H]3C[C@H](O)[C@]12C` [Taurodeoxycholic acid (sodium hydrate)], the “Complete Media” value in assay [1] (setting [8]) is on record as 1.168.

On to `CSc1nc2cc(Cl)c(Oc3cccc(Cl)c3Cl)cc2[nH]1` [Triclabendazole], for which, in assay [1] (setting [9]), the “Cholesterol-free media + simvastatin (0.04 μM)” value was determined as 0.945.

Turning to `NS(=O)(=O)c1cc2c(cc1Cl)N=C(CSCc1ccccc1)NS2(=O)=O` [Benzthiazide], in assay [1] (setting [3]), the “Complete Media” value is listed as 1.151.

For `CCN1CCN(c2cc(-c3ccc(F)cc3)c3c(n2)CCCCCC3)CC1` [Blonanserin], in assay [1] (NCI-H292 cells, FDA drug library screen (TABLE 2)), the “Cholesterol-free media + simvastatin (0.04 μM)” value was 0.9451.

As for `CC(C)NCC(O)COc1ccc(COCCOC(C)C)cc1.CC(C)NCC(O)COc1ccc(COCCOC(C)C)cc1.O=C(O)/C=C/C(=O)O` (racemic) [(±)-Bisoprolol (hemifumarate)], the “Complete Media” value in assay [1] (setting [4]) came out at 1.154.

In the case of `Nc1ccn([C@@H]2CS[C@H](CO)O2)c(=O)n1` [Lamivudine], the “Complete Media” value in assay [1] (setting [8]) stood at 1.171.

`[H]/N=C(\N/C(=N/[H])Nc1ccc(Cl)cc1)NC(C)C` [Proguanil]: the “Complete Media” value in assay [1] (setting [5]) turned out to be 1.172.

Consider `COC(=O)C1=C(C)NC(C)=C(C(=O)OC2CCCN(Cc3ccccc3)C2)C1c1cccc([N+](=O)[O-])c1` (centres unmarked) [Benidipine (hydrochloride)], for which the “Complete Media” value in assay [1] (setting [3]) stood at 1.165.

As to `Cc1oc(=O)oc1CN1CCN(c2cc3c(cc2F)c(=O)c(C(=O)O)c2n3C(C)S2)CC1` (centres unmarked) [Prulifloxacin], the “Complete Media” value in assay [1] (setting [4]) turned out to be 1.175.

`C[C@H]1O[C@H](O[C@H]2[C@H](O)[C@@H](O)[C@@H](O[C@H]3[C@H](O)[C@@H](O)C(O)O[C@@H]3CO)O[C@@H]2CO)[C@H](O)[C@@H](O)[C@@H]1N[C@H]1C=C(CO)[C@@H](O)[C@H](O)[C@H]1O` (some centres unmarked) [Acarbose]: the “Complete Media” value in assay [1] (setting [4]) is recorded as 1.153.

With Clemastine (fumarate), the “Complete Media” value in assay [1] (setting [3]) came out at 0.9989.

Consider `CC1(C)OC[C@@H](COC(=O)CCc2ccc(OC[C@@H](O)CNCCNC(=O)N3CCOCC3)cc2)O1` [Landiolol (hydrochloride)], for which, in assay [1] (setting [4]), the “Complete Media” value is 1.169.

`CNC[C@H](O)[C@@H](O)[C@H](O)[C@H](O)CO.O=C(O)c1ccc2nc(-c3cc(Cl)cc(Cl)c3)oc2c1` [Tafamidis meglumine]: the “Complete Media” value in assay [1] (setting [4]) stood at 1.151.

In the case of `NC(=O)N/N=C/c1ccc([N+](=O)[O-])o1` [Nitrofurazone], the “Complete Media” value in assay [1] (setting [8]) is on record as 1.151.

Take Amlodipine (besylate): the “Complete Media” value in assay [1] turned out to be 0.999.

As for `OCCOCCN1CCN(C(c2ccccc2)c2ccc(Cl)cc2)CC1` (centres unmarked) [Hydroxyzine (dihydrochloride)], the “Complete Media” value in assay [1] (setting [4]) was 1.173.
